scFv variants of Ab-95 (light chain) against a SARS-CoV-2 spike peptide

The target is the same throughout: PDVDLGDISGINAS, from the HR2 region of SARS-CoV-2 spike.

Each scFv is VH, a 15-residue (Gly4Ser)3 linker, VL, as in the parent Ab-95, and differs from it in the CDRs of the light chain only.
VH: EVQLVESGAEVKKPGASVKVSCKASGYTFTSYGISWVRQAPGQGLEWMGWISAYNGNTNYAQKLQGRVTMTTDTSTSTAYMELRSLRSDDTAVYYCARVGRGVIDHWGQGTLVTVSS
VL: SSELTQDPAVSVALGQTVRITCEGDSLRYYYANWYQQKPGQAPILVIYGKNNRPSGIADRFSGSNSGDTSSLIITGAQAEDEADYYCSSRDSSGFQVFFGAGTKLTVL

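The starting antibody came from a phage panning campaign against this peptide. In library AAYL52, one, two or three CDR residues were substituted; doubles and triples were drawn at random. The assay is AlphaSeq: two haploid yeast populations carry antibody and antigen on their surface. Pairs that bind mate more often; barcode pairs of the diploids are counted by sequencing. Read counts were normalised to the haploid input and turned into Kd by a linear fit to BCL2-family pairs of known affinity, for each replicate. The assay was run in three technical replicates.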

Each variant's VL is given in full.
This list gathers variants with a substitution at R90 (VL, numbered from residue 1).
Each Kd is an estimate from the mating assay, the geometric mean of the replicates in which the pair was seen; lower is stronger.
An entry "no signal" has no value in the source: the pair was not observed among the diploids in any replicate. This suggests poor binding but is not conclusive.

Variant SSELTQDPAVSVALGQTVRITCEGDSLRYYYANWYQQKPGQAPILVIYGKNNIPSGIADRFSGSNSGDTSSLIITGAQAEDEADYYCSSDDSSGFIVFFGAGTKLTVL gave 7.7 µM (3 of 3 replicates). For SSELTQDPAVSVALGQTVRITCEGDSLRYYYYNWYQQKPGQAPILVIYGDNNRPSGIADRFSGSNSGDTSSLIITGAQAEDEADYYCSSDDSSGFQVFFGAGTKLTVL, the assay gave 8.5 µM (1 of 3 replicates). Variant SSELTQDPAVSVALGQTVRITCEGDKLRYYYANWYQQKPGQAPILVIYGKNNRPSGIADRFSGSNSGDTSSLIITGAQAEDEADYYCSSIDSSGFPVFFGAGTKLTVL showed no signal (0 of 3 replicates). For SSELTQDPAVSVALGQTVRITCEGDSLQYYYANWYQQKPGQAPILVIYGKNNRPSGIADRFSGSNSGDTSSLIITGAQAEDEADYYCSSMDSSGFQVFFGAGTKLTVL, the assay gave 410 nM (3 of 3 replicates). Variant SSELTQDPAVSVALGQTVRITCEGDSLRYYYANWYQQKPGQAPILVIYGKNNRPEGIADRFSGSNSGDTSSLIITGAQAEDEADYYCSSHDRSGFQVFFGAGTKLTVL showed 6.0 µM (2 of 3 replicates). Variant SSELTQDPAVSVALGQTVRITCEGDSLRFYYANWYQQKPGQAPILVIYGKNNRPSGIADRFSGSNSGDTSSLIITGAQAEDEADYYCSSYDSAGFQVFFGAGTKLTVL gave 1.6 µM (3 of 3 replicates). Variant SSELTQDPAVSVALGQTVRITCEGDSLREYYANWYQQKPGQAPILVIYGKRNRPSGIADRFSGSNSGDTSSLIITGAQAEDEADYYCSSLDSSGFQVFFGAGTKLTVL gave 14 µM (1 of 3 replicates). Variant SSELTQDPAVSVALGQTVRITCEGDSLRYYYANWYQQKPGQAPILVIYGKNNRPSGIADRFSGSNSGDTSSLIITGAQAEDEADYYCESMDSSGFYVFFGAGTKLTVL showed no signal (0 of 3 replicates).

With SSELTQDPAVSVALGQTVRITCEIDSLRQYYANWYQQKPGQAPILVIYGKNNRPSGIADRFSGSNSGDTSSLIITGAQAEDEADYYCSSPDSSGFQVFFGAGTKLTVL the result was no signal (0 of 3 replicates). Variant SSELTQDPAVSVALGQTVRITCEGDSLRYYYANWYQQKPGQAPILVIYGKNNRPSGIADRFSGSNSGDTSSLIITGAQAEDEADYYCSWTDSSGFQVFFGAGTKLTVL gave 5.7 µM (2 of 3 replicates). Variant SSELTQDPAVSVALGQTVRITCEGDSLRYYYANWYQQKPGQAPILVIYLKNNRPSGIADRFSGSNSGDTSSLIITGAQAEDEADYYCSSEDSSGFQVFFGAGTKLTVL showed 13 µM (2 of 3 replicates). Variant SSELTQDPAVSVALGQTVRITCEGDSLRYYKANWYQQKPGQAPILVIYGKNNRPSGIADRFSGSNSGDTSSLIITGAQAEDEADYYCSSIDSSGFQVFFGAGTKLTVL gave 3.6 µM (2 of 3 replicates). Variant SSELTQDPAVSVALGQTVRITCEGDSLRYYYANWYQQKPGQAPILVIYGYNNRPSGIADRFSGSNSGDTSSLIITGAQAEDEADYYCSSPDSSGVQVFFGAGTKLTVL gave 61 µM (2 of 3 replicates). Variant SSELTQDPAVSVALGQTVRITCEGDSLRYFYANWYQQKPGQAPILVIYGKNNRPSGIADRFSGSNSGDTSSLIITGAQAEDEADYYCSSLDSSGFQVFFGAGTKLTVL gave 21 µM (2 of 3 replicates). With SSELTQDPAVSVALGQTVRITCEGDVLRYYYANWYQQKPGQAPILVIYGKNNRPSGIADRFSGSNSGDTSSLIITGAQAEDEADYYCSSQSSSGFQVFFGAGTKLTVL the result was 3.3 µM (2 of 3 replicates). Variant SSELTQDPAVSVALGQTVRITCEGDSLHYYYANWYQQKPGQAPILVIYGKNNRPSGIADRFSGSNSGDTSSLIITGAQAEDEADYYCSSTDSSGFQRFFGAGTKLTVL gave no signal (0 of 3 replicates).

Picked from the list: the 2 lowest averages where every replicate gave a value.

VL,apparent Kd,seen in
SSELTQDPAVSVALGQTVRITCEGDSLQYYYANWYQQKPGQAPILVIYGKNNRPSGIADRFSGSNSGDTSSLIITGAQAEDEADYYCSSMDSSGFQVFFGAGTKLTVL,410 nM,3/3
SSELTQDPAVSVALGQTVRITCEGDSLRFYYANWYQQKPGQAPILVIYGKNNRPSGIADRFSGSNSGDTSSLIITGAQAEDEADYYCSSYDSAGFQVFFGAGTKLTVL,1.6 µM,3/3

Three control strains display no target. For library AAYL52, 28% of the pairings with them gave a signal, with a median of 8.2 µM and one signal in twenty below 800 nM, so weak values seen in few replicates may be background.

Reference: Engelhart et al. 2022, doi:10.1038/s41597-022-01779-4. File: FLAb, binding data.